Results reported in patent publication US8414660B2, “Haloferax volcanii laccase and variants and fragments thereof” (University of Florida Research Foundation, Inc., priority 2009, dated 2013).

Protein sequences, listed by entry. Tags and fused reporters are not part of them. Residues count along the entry.
UniProt D4GPK6, 32-579: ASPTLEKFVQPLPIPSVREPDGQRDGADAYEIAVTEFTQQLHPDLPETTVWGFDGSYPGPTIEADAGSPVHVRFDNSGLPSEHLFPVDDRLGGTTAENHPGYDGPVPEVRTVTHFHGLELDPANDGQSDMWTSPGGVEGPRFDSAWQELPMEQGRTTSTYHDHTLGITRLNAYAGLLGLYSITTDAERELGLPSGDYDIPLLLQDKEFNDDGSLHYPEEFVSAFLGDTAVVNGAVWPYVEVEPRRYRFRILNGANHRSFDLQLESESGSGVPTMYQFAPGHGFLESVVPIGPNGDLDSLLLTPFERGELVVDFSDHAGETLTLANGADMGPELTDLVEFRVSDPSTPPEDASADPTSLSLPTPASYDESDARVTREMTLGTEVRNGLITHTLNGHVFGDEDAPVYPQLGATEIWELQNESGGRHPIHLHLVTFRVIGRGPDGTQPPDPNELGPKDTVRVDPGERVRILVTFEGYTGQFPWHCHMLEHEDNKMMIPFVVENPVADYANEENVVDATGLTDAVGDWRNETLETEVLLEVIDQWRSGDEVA

Molecular target: LccA isolated from Hfx. volcanii SB01 (Haloferax volcanii, UniProt D4GPK6)
Assay: Effect of various compounds (inhibitors) on LccA activity, SGZ oxidation
Format: biochemical

[N-]=[N+]=[N-]
Inhibition of LccA (1 mM): 50%
Relative Activity of LccA (compound 1 mM, 10 min at 45° C.): 55.2 ± 2.7%
